Results reported in patent publication US6608082B1, “Treatment of erectile dysfunction using isoquinoline compound melanocortin receptor ligands” (Lion Bioscience AG, priority 1998, dated 2003).
Where two headings read alike, the source gives them in different places.

Chains of the proteins cited; added tags and fusions are not shown.
UniProt Q01726, whole entry: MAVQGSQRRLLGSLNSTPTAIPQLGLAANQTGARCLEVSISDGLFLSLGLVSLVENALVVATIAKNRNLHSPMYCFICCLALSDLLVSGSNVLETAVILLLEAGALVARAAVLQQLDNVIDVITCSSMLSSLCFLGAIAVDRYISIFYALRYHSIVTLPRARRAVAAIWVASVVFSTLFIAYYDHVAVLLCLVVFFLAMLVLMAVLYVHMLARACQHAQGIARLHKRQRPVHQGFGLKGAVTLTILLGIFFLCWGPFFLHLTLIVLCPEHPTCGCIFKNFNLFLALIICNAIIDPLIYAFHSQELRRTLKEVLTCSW
UniProt P32245, whole entry: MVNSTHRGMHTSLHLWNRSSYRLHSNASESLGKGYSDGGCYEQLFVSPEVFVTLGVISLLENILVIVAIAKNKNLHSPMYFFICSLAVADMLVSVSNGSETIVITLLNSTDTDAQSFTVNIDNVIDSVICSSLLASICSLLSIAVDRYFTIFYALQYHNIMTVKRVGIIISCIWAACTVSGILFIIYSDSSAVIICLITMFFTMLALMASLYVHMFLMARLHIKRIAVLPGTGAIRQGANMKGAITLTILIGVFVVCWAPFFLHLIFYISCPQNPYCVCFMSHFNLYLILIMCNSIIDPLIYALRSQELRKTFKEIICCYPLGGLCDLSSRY

Key:
MCR-1 = MCR-1 (Homo sapiens, UniProt Q01726); assay: Melanocortin receptor binding assay, competition with 125I-HP 467, HEK 293 cells expressing hMCR-1; conditions: for IC50: read-out: MC-1 IC50
MCR-4 = MCR-4 (Homo sapiens, UniProt P32245); assay: Melanocortin receptor binding assay, competition with 125I-HP 467, HEK 293 cells expressing hMCR-4; conditions: for IC50: read-out: MC-4 IC50
[1] = TRG 2408 and TRG 2409 libraries, inhibition of 125I-HP 467 binding
[2] = TRG 2414 library, inhibition of binding of 125I-HP 467, HEK 293 cells expressing MCR-1
[3] = TRG 2414 library, inhibition of binding of 125I-HP 467, HEK 293 cells expressing MCR-4
[4] = competition with 125I-HP 467, HEK 293 cells expressing MCR-1
[5] = competition with 125I-HP 467, HEK 293 cells expressing MCR-4

| SMILES | IC50 (MCR-1; [1]) [µM] | IC50 (MCR-4; [1]) [µM] | other results |
| --- | --- | --- | --- |
| CN[C@@H](CN)CCCCN1Cc2ccccc2C(CNCc2ccccc2O)C1c1ccc(Cl)cc1Cl (some centres unmarked) | 2.77 | 4.89 | – |
| COc1ccc(CNC(=O)C2c3ccccc3C(=O)N(CCCC[C@H](N)C(N)=O)C2c2cc(C(F)(F)F)cc(C(F)(F)F)c2)cc1 (some centres unmarked) | – | – | MC-1 IC50 (MCR-1; [2]): no fit; MC-4 IC50 (MCR-4; [3]): no fit |
| CN[C@H](CN)CCCCN1Cc2ccccc2C(CNCc2ccccc2O)C1c1ccc(NCc2ccc(Cl)cc2)cc1 (some centres unmarked) | – | – | IC50 (MCR-1; [4]): 5.04 µM; IC50 (MCR-4; [5]): 22.9 µM |
| CN[C@H](CN)CCCCN1Cc2ccccc2C(CNCc2ccccc2O)C1c1ccc(NCCC2CC3CCC2C3)cc1 (some centres unmarked) | – | – | IC50 (MCR-1; [4]): 2.6 µM; IC50 (MCR-4; [5]): 20.7 µM |
| CCNc1ccc(C2C(CNCc3ccccc3O)c3ccccc3CN2CC[C@H](N)CN)cc1 (some centres unmarked) | 3.31 | 15.9 | – |
| NC(=O)[C@H](CCCCN1C(=O)c2ccccc2C(C(=O)NCCc2cccc(Cl)c2)C1c1ccc(Cl)cc1Cl)NC(=O)Cc1ccccc1 (some centres unmarked) | – | – | MC-1 IC50 (MCR-1; [2]): no fit; MC-4 IC50 (MCR-4; [3]): no fit |
| CN[C@H](CN)CCCN1Cc2ccccc2C(CNCc2ccccc2O)C1c1ccc(Cl)cc1Cl (some centres unmarked) | 2.07 | 4.36 | – |
| NC[C@H](N)CCCCN1Cc2ccccc2C(CNCc2ccccc2O)C1c1ccc(Cl)cc1Cl (some centres unmarked) | 1.6 | 3.66 | – |
| NCCN[C@H](CN)CCCCN1Cc2ccccc2C(CNCc2ccccc2O)C1c1ccc(Cl)cc1Cl (some centres unmarked) | 2.5 | 8.1 | – |
| CN[C@H](CN)CCCCN1Cc2ccccc2C(CNCc2ccccc2O)C1c1ccc(NCc2ccc(OC)cc2)cc1 (some centres unmarked) | – | – | IC50 (MCR-1; [4]): 4 µM; IC50 (MCR-4; [5]): 13.4 µM |
| CN[C@H](CN)CCCCN1Cc2ccccc2C(CNCc2ccccc2O)C1c1ccc(NCCc2ccc(Cl)c(Cl)c2)cc1 (some centres unmarked) | – | – | IC50 (MCR-1; [4]): 9.82 µM; IC50 (MCR-4; [5]): 49.8 µM |
| COc1ccc(CCNC(=O)C2c3ccccc3C(=O)N(CCCC[C@H](NC(=O)Cc3ccccc3)C(N)=O)C2c2ccc(Cl)cc2Cl)cc1 (some centres unmarked) | – | – | MC-1 IC50 (MCR-1; [2]): no fit; MC-4 IC50 (MCR-4; [3]): no fit |
| CCOc1ccccc1CNCC1c2ccccc2CN(CCCC[C@H](N)CN)C1c1ccccc1Br (some centres unmarked) | – | – | IC50 (MCR-1; [2]): 2.33 µM; IC50 (MCR-4; [3]): 1.5 µM |
| CN[C@H](CN)CCCCN1Cc2ccccc2C(CNCc2ccccc2O)C1c1ccc(NCCc2ccccc2)cc1 (some centres unmarked) | – | – | IC50 (MCR-1; [4]): 1.03 µM; IC50 (MCR-4; [5]): 9.81 µM |
| NC(=O)[C@H](CCCCN1C(=O)c2ccccc2C(C(=O)NCCc2cccc(Cl)c2)C1c1ccc(Oc2ccccc2)cc1)NC(=O)c1ccccc1 (some centres unmarked) | – | – | MC-1 IC50 (MCR-1; [2]): no fit; MC-4 IC50 (MCR-4; [3]): no fit |
| COc1ccccc1CCNC(=O)C1c2ccccc2C(=O)N(CCCC[C@H](NC(=O)Cc2ccccc2)C(N)=O)C1c1ccc(Cl)cc1Cl (some centres unmarked) | – | – | MC-1 IC50 (MCR-1; [2]): no fit; MC-4 IC50 (MCR-4; [3]): no fit |
| CCNc1ccc(C2C(CNCc3ccccc3O)c3ccccc3CN2CC[C@@H](CN)NC)cc1 (some centres unmarked) | 3.08 | 21.3 | – |
| NC[C@@H](N)CCCN1Cc2ccccc2C(CNCc2ccccc2O)C1c1ccc(Cl)cc1Cl (some centres unmarked) | 2.21 | 9.44 | – |
| CCCNc1ccc(C2C(CNCc3ccccc3O)c3ccccc3CN2CCCC[C@@H](CN)NC)cc1 (some centres unmarked) | – | – | IC50 (MCR-1; [4]): 0.64 µM; IC50 (MCR-4; [5]): 12.6 µM |
| COc1ccccc1CCNC(=O)C1c2ccccc2C(=O)N(CCCC[C@H](N)C(N)=O)C1c1cc(C(F)(F)F)cc(C(F)(F)F)c1 (some centres unmarked) | – | – | MC-1 IC50 (MCR-1; [2]): no fit; MC-4 IC50 (MCR-4; [3]): no fit |
| CN[C@H](CN)CCCCN1Cc2ccccc2C(CNCc2ccccc2O)C1c1ccc(NCC2CCCCC2)cc1 (some centres unmarked) | – | – | IC50 (MCR-1; [4]): 2.47 µM; IC50 (MCR-4; [5]): 15.3 µM |
| NCCN[C@H](CN)CCCN1Cc2ccccc2C(CNCc2ccccc2O)C1c1ccc(Cl)cc1Cl (some centres unmarked) | 1.66 | 4.51 | – |

More lines, main results first:

| IC50 (MCR-1; [1]) [µM] | IC50 (MCR-4; [1]) [µM] | SMILES | other results |
| --- | --- | --- | --- |
| 0.68 | 21.8 | CCNc1ccc(C2C(CNCc3ccccc3O)c3ccccc3CN2CCCC[C@H](CN)NCCNC)cc1 (some centres unmarked) | – |
| 9.06 | 6.9 | NC[C@H](CCN1Cc2ccccc2C(CNCc2ccccc2O)C1c1ccc(Cl)cc1Cl)NCCc1ccccc1 (some centres unmarked) | – |
| 1.02 | 38 | CCNc1ccc(C2C(CNCc3ccccc3O)c3ccccc3CN2CCCC[C@H](CN)NC)cc1 (some centres unmarked) | – |
| 1.32 | 14.8 | CNCCN[C@H](CN)CCCCN1Cc2ccccc2C(CNCc2ccccc2O)C1c1ccc(-c2ccccc2)cc1 (some centres unmarked) | – |
| 1.66 | 3.88 | CNCCN[C@H](CN)CCCN1Cc2ccccc2C(CNCc2ccccc2O)C1c1ccc(Cl)cc1Cl (some centres unmarked) | – |
| 1.55 | 15.2 | CN[C@@H](CN)CCCCN1Cc2ccccc2C(CNCc2ccccc2O)C1c1ccc(-c2ccccc2)cc1 (some centres unmarked) | – |
| 0.54 | 10.5 | CN[C@H](CN)CCCCN1Cc2ccccc2C(CNCc2ccccc2O)C1c1ccc(NCc2ccccc2)cc1 (some centres unmarked) | – |
| 8.22 | 27.6 | NC[C@H](CCCN1Cc2ccccc2C(CNCc2ccccc2O)C1c1ccc(-c2ccccc2)cc1)NCCc1ccccc1 (some centres unmarked) | – |
| 1.57 | 9.71 | CCNc1ccc(C2C(CNCc3ccccc3O)c3ccccc3CN2CCCC[C@H](CN)NCCc2ccccc2)cc1 (some centres unmarked) | – |
| 1.14 | 38.9 | CCNc1ccc(C2C(CNCc3ccccc3O)c3ccccc3CN2CCCC[C@@H](N)CN)cc1 (some centres unmarked) | – |
| 0.47 | 12.6 | CCNc1ccc(C2C(CNCc3ccccc3O)c3ccccc3CN2CCCC[C@H](CN)NCCN)cc1 (some centres unmarked) | – |
| 6.7 | 14.9 | NC[C@@H](N)CCN1Cc2ccccc2C(CNCc2ccccc2O)C1c1ccc(-c2ccccc2)cc1 (some centres unmarked) | – |
| 1.7 | 5.57 | NCCN[C@@H](CN)CCCCN1Cc2ccccc2C(CNCc2ccccc2O)C1c1ccc(Cl)cc1Cl (some centres unmarked) | – |
| 3.27 | 7.07 | CCNc1ccc(C2C(CNCc3ccccc3O)c3ccccc3CN2CC[C@@H](CN)NCCc2ccccc2)cc1 (some centres unmarked) | – |
| 6.72 | 10.8 | CN[C@H](CN)CCN1Cc2ccccc2C(CNCc2ccccc2O)C1c1ccc(-c2ccccc2)cc1 (some centres unmarked) | – |
| 4.06 | 12.5 | NC[C@H](CCCCN1Cc2ccccc2C(CNCc2ccccc2O)C1c1ccc(-c2ccccc2)cc1)NCCc1ccccc1 (some centres unmarked) | – |
| 1.84 | 4.9 | CNCCN[C@H](CN)CCCCN1Cc2ccccc2C(CNCc2ccccc2O)C1c1ccc(Cl)cc1Cl (some centres unmarked) | – |
| 0.96 | 14.8 | CCNc1ccc(C2C(CNCc3ccccc3O)c3ccccc3CN2CCCC[C@@H](CN)NCCN)cc1 (some centres unmarked) | – |
